Test system: wild-type AB-line zebrafish
Details: 3 dpf to 5 dpf, 35° C.; survival rate>90% and teratogenicity<20%
Procedure: The zebrafish model is a wild-type AB-line zebrafish from College of Biotechnology and Pharmaceutical Engineering, Nanjing Tech University, and is carried out by a natural mating reproduction method, with 30 zebrafish of 2 dpf in each experimental group. The zebrafish is fed in fish culture water at 28° C. (water quality:200 mg of instant sea salt and CaCO3 are added into 1 L of reverse osmosis water with a conductivity of 480 uS/cm to 510 uS/cm, a pH value of 6.9 to 7.2, and a hardness of 53.7 mg/L to 71.6 mg/L), and the feeding management meets the requirements of international AAALAC certification.
240 3 dpf wild-type AB-line zebrafish were randomly selected in an 8-well plate, with 30 zebrafish in each well, and 3 mL of fish culture water in each well, the cordycepin was diluted according to a maximum lethal dose, dissolved in DMSO, and added into each well according to a concentration gradient (the maximum lethal dose was diluted by 100 times, in which 8 concentration gradient values were taken for the experiment), and meanwhile, a normal control group, a solvent control group G (5% glucose) and a solvent control group D (DMSO) were set. […]

Substance: isopropyl((((3-azide-4-hydroxy-5-(6-(isoniazid)-9H-purin-9-yl)tetrahydrofuran-2-yl)methoxy)methyl)(phenoxy)phosphoryl)alanine ester [Compound 28]
- Maximum tolerance dose (MTD) in zebrafish model: 5 µM
